Target: B2 receptor (Homo sapiens, UniProt P30411)
Assay: cell-based

Sequences of proteins named here, by UniProt entry; tags and fusion partners are left off.
UniProt P30411, whole entry: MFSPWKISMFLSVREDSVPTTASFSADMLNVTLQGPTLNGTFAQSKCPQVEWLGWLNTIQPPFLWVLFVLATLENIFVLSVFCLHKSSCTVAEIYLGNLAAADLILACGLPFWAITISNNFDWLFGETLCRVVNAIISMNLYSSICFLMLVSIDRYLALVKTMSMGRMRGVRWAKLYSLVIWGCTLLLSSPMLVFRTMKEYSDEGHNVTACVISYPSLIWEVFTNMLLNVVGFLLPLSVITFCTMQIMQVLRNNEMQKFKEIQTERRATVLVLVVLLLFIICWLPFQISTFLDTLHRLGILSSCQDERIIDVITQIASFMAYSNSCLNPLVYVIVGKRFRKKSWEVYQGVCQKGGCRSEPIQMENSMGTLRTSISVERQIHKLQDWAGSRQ

For `NC(N)=NCCC[C@@H](N)C(=O)N[C@@H](CCCN=C(N)N)C(=O)N1CCC[C@H]1C(=O)N1C[C@H](O)C[C@H]1C(=O)NCC(=O)N[C@H](C(=O)N[C@@H](CO)C(=O)N[C@@H](C(=O)N1[C@H](C(=O)N[C@@H](CCCN=C(N)N)C(=O)O)C[C@@H]2CCCC[C@@H]21)C1Cc2ccccc2C1)C1Cc2ccccc2C1` [Compound 1, DArg-Arg-Pro-Hyp-Gly-Iglb-Ser-DIglb-O ic-Arg], the Kb was 1.78 nM.
